Results: ChEMBL document CHEMBL1129677, “3 alpha-(4'-substituted phenyl)tropane-2 beta-carboxylic acid methyl esters: novel ligands with high affinity and selectivity at the dopamine transporter” (J Med Chem, 1996)

Chains of the proteins cited; added tags and fusions are not shown.
UniProt P31652, whole entry: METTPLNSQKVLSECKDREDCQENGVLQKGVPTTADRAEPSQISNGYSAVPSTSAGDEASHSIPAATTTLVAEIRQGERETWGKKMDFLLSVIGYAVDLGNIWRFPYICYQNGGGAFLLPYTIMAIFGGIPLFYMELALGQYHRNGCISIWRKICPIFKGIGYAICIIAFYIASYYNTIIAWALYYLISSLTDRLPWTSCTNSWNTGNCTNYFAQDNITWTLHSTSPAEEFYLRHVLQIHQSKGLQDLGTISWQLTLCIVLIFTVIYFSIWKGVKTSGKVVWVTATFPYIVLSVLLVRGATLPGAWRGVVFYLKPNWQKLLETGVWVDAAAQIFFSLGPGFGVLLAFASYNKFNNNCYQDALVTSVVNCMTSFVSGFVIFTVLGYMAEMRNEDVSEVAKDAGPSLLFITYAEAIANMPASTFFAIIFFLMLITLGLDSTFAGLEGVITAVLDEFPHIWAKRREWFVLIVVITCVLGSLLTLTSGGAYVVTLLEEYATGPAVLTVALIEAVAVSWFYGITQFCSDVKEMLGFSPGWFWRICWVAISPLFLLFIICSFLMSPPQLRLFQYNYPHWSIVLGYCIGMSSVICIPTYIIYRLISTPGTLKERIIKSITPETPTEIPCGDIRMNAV

Biological target: Sodium-dependent serotonin transporter (Rattus norvegicus, UniProt P31652)
Assay: Binding potency for Serotonin transporter using [3H]- paroxetine

SMILES: COC(=O)[C@@H]1C2CC[C@H](C[C@@H]1c1ccccc1)N2C (stereo in doubt; 2e)
- IC50: 5.7 µM
